Target: Amine oxidase [flavin-containing] B (Homo sapiens, UniProt P27338)
Test: biochemical

Amino acid sequences for entries named in this document (tags omitted).
UniProt P27338, whole entry: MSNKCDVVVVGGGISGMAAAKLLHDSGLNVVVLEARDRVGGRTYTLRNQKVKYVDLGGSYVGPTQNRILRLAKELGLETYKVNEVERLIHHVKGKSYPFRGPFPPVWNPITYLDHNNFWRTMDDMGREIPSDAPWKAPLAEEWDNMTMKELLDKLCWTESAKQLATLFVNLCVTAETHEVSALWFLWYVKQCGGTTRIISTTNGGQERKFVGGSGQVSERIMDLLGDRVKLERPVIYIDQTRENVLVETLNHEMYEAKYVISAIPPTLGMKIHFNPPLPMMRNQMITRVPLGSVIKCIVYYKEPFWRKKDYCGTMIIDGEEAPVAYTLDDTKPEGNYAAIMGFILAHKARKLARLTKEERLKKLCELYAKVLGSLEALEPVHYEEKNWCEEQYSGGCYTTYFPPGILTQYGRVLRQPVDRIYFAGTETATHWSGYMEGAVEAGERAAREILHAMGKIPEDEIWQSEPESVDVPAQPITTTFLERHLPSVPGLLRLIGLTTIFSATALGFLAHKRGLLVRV

Compound `NC1CCC(N[C@@H]2C[C@H]2c2ccccc2)CC1` (stereo partly specified) has an IC50 of over 100 µM.

— ChEMBL document CHEMBL4130492, “Tying up tranylcypromine: Novel selective histone lysine specific demethylase 1 (LSD1) inhibitors” (Eur J Med Chem, 2017)
